Measurements taken from PubChem BioAssay AID493234 (Broad Institute, 2011).
This is a selection; strong and weak results do not stand in their true shares. Active and inactive are the calls of the source.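 Rule for the calls: active = fitted curve rises to an activation of 500 at or below the top valid dose; inactive = the rest, including activity in the falling direction.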

Experiment: HRE reporter activators under added zinc – cell-based, U2OS, luminescence, dry powder, set 2, mechanism study for HIF pathway activator project, dose response (AID 493234)
Settings: U2OS HRE-luciferase, zinc medium, at 38 µM (top of the series)
In short: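 schedule = 24 h cell growth at 37 °C, then 24 h compound exposure | system = U2OS cells with stable HRE-luciferase reporter | detection = Steady-Glo luminescence | compound dosing = 8 concentrations, 3-fold dilution steps | probe or stimulus = zinc sulfate, 50 µM final, added before compound addition | buffer or medium = phenol red-free DMEM with 10% FBS, without hygromycin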

In the case of `O=c1[nH]c2ccccc2n1C1CCN(Cc2ccc(O)c3ncccc23)CC1`, the activation is reported as inactive: -4.88%.
